The target in the test is human TrkA receptor (Homo sapiens (Human), UniProt P04629). Description: DiscoverX PathHunter TrkA functional assay (NGF-stimulated U2OS cells). The format is cell-based. As to conditions: U2OS cells expressing human TrkA-PK, Shc1-EA and p75NTR; compound 1 h, then NGF at ~80% of maximal response for 3 h; luminescence.

By UniProt entry, the sequences of proteins in these tests, tags left out. Residues count along the entry.
UniProt P04629, 33-796: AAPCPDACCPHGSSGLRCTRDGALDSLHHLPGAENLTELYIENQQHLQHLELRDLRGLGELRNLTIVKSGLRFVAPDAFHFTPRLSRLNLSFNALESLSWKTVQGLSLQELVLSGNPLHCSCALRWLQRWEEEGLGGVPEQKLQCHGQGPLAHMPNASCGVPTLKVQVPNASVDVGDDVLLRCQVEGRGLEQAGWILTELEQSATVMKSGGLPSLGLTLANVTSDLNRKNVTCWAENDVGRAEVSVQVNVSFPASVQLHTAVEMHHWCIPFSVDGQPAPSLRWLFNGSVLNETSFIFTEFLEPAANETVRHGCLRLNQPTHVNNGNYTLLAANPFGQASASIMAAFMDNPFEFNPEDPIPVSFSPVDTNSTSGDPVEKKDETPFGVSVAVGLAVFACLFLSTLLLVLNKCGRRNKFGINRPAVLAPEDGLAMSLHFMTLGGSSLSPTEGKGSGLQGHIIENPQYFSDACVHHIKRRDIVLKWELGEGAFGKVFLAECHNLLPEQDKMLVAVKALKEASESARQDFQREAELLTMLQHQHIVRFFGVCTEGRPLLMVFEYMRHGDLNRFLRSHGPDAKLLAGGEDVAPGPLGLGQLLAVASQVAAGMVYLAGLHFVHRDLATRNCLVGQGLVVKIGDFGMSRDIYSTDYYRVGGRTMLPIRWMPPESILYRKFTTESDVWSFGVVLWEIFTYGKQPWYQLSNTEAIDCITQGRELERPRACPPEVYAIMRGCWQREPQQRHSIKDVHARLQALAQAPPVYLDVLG

Each structure is given as a SMILES string.

What is called IC50 is the concentration at which inhibition is half-maximal. Lower therefore signals greater potency in that assay.

Molecule `Cn1ccc(-c2cc(C(=O)Nc3ccc(C4CCC(=O)N4)nc3-c3ccccc3)ccc2C(F)(F)F)n1` (single isomer, unassigned) [Example 189, (R or S)-3-(1-Methyl-1H-pyrazol-3-yl)-N-(6-(5-oxopyrrolidin-2-yl)-2-phenylpyridin-3-yl)-4-(trifluoromethyl)benzamide] displayed an IC50 of 0.51 nM.

In turn, `CS(=N)(=O)c1ccc(-c2cnc(-c3ccccc3)c(NC(=O)c3cc(-c4cc[nH]n4)c(C(F)(F)F)cc3F)c2)cc1` (single isomer, unassigned) [Example 217, (R or S)-2-Fluoro-N-(5-(4-(S-methylsulfonimidoyl)phenyl)-2-phenylpyridin-3-yl)-5-(1H-pyrazol-3-yl)-4-(trifluoromethyl)benzamide] had an IC50 of 11 nM.
